Results reported in PubChem BioAssay AID488862 (Broad Institute, 2010).
The entries are a selection whose mix differs from that of the whole data set. Active and inactive are the calls of the source. Cut-off read from the data, not from the text of the source: active = inhibition above about 52%; inactive = the rest.

Experiment: suppresses PrP 5' UTR mRNA reporter expression (AID 488862); note: 0 = median of the neutral control wells
Conditions: cell-based PrP 5' UTR mRNA reporter, plate reader; stronger effect = higher value; concentration not given here

Structure (SMILES)	inhibition
CCC(=O)N(c1ccccc1)C1(COC)CCN(CCn2nnn(CC)c2=O)CC1	inactive: -4.41%
CCC(=O)N(c1ccccc1)C1(COC)CCN(CCc2cccs2)CC1	inactive: -28.3%
